Paper PMC4319893, “Targeting Protein-Protein Interactions with Trimeric Ligands: High Affinity Inhibitors of the MAGUK Protein Family” (PLoS ONE, 2015)
pKi: −log10 of the molar value.

Amino acid sequences for entries named in this document (tags omitted). Residues count along the entry.
UniProt Q9P021, whole entry: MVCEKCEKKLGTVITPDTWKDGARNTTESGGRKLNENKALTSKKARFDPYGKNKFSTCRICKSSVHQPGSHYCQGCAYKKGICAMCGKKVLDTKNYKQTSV
UniProt P78352, 62-154: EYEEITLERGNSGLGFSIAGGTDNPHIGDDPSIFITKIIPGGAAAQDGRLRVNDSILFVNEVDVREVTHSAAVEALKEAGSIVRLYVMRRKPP

Biological target: CRIPT (Homo sapiens) (UniProt Q9P021)

Q: How did the pKi turn out when PSD-95 PDZ1 (from UniProt P78352) was run?
A: Its pKi is 4.01.
